# Results taken from PMC10187114.
# Columns and labels:
# [1] = molecular target: GFP-VPS35L with complete deletion of the β-hairpin (human) (UniProt Q7Z3J2); assay: co-IP; GFP-nanotrap: lysate of HEK293T cells transfected with the GFP-tagged bait, GFP-trap beads, 1 h at 4°C, quantitative western blot of endogenous partners
# [2] = molecular target: GFP-VPS35L(I761G) (human) (UniProt Q7Z3J2); assay: as above
# [3] = molecular target: VPS35L (human) (UniProt Q7Z3J2); assay: SEC; Retriever co-expressed in insect cells, affinity purification then size-exclusion chromatography (Superdex200, 25 mM HEPES pH 8.0, 300 mM NaCl, 2 mM β-mercaptoethanol, 4°C)
Substance,reduction in binding against wild type [1],reduction in binding against wild type [2],stoichiometry N [3]
VPS29 (endogenous) (from UniProt Q9UBQ0 1-182) (natural protein),> 50%,> 50%,
VPS29-6xHis (from UniProt Q9UBQ0 1-182) (natural protein),,,1
